According to ChEMBL document CHEMBL1212786 (Antimicrob Agents Chemother, 2010):
pKi: −log10 of the molar value.

Sequences of proteins named here, by UniProt entry; tags and fusion partners are left off.
UniProt P62937, whole entry: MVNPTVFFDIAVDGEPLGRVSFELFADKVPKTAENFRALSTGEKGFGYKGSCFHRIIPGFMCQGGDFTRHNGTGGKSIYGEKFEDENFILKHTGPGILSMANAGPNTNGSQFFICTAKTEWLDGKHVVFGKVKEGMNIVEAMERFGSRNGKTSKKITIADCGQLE

Target: Peptidyl-prolyl cis-trans isomerase A (Homo sapiens, UniProt P62937)
Experiment: Inhibition of calcineurin phosphatase activity of CyPA

- pKi: 8.74
Compound: C/C=C/C[C@@H](C)[C@@H](O)[C@H]1C(=O)N[C@@H](CC)C(=O)N(C)C(SCCN(C)C)C(=O)N(C)[C@@H](CC(C)(C)O)C(=O)N[C@@H](C(C)C)C(=O)N(C)[C@@H](CC(C)C)C(=O)N[C@@H](C)C(=O)N[C@H](C)C(=O)N(C)[C@@H](CC(C)C)C(=O)N(C)[C@@H](CC(C)C)C(=O)N(C)[C@@H](C(C)C)C(=O)N1C (single isomer, unassigned) [SCY 635]
